Measured affinities in a library of Ab-91 heavy chain variants

Values reported by Engelhart et al. 2022, doi:10.1038/s41597-022-01779-4 (FLAb copy).

Antigen: PDVDLGDISGINAS, a 14-residue peptide of the SARS-CoV-2 spike HR2 region.

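The parent was found by panning a naive human phage display library on the peptide. Library AAYL51 holds single substitutions and randomly drawn double and triple substitutions in the CDRs. In AlphaSeq, yeast of one mating type display the scFv and yeast of the other type display the target. Binding brings cells together so that they mate, and sequencing counts the barcode pairs among the diploids. Each replicate has its own calibration line, from reference interactions of the BCL2 family. Each pool was mated in three replicate cultures.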

Parent: Ab-91, a human scFv built as VL, a (GGGGS)3 linker, VH. Only the CDRs of the heavy chain vary.
VL: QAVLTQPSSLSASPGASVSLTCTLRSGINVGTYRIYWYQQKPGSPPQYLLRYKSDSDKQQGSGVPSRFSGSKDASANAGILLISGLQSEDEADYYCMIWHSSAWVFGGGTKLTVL
VH: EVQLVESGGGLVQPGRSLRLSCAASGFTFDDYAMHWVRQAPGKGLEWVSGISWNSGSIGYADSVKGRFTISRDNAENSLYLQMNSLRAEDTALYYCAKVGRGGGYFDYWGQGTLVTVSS

Positions count from residue 1 of the parent VH; S52T puts T in place of S. Values are apparent Kd, the geometric mean of the replicates that gave a signal; lower means stronger binding. A pair that was not seen in any replicate is written "nd"; this usually means weak binding, but a binder can also be missed.

| Kd | replicates with signal | changes |
|---|---|---|
| 160 µM | 3/3 | S52T/Y105R/Y108P |
| 5.2 µM | 1/3 | Y32T/A33T/N54T |
| nd | 0/3 | F27R/D30A/D62L |
| 190 µM | 1/3 | G26C/M34F/S52W |
| 1.4 µM | 1/3 | M34R/N54R/G56E |
| 49 µM | 3/3 | S55N/G102E/D107S |
| nd | 0/3 | F27E/F29N/R101N |
| 16 µM | 2/3 | S52A/Y105Q |
| nd | 0/3 | S52P/Y60C/G100D |
| 33 µM | 2/3 | D30P/Y32G/M34E |
| 9.4 µM | 3/3 | T28S/S55V/G104K |
| 80 µM | 3/3 | D30Y/S52K/Y60F |
| nd | 0/3 | F29V/S52H/S57H |
| 46 µM | 1/3 | D31L/A33N/Y60S |
| 7.4 µM | 1/3 | D62T/S63A/K65W |
| nd | 0/3 | A33Q/G56W/V99C |
| 130 µM | 2/3 | F27L/G50I/S55H |
| 340 µM | 2/3 | M34G/S63G/Y108E |
| 5.0 µM | 1/3 | H35I/S63L/K65N |
| 3.9 mM | 2/3 | I51G/G59F/Y105T |
| nd | 0/3 | F29P/D31L/D107T |
| nd | 0/3 | F27I/A33Q |
| 2.6 µM | 1/3 | K65W/V99P/G100S |
| nd | 0/3 | F27L/M34V/D107H |
| nd | 0/3 | F29A/D31H/I58Y |
| nd | 0/3 | T28I/I58M/V99Q |
| 170 µM | 3/3 | Y32A/I51L/V64L |
| nd | 0/3 | G26Y/H35L |
| nd | 0/3 | F29C/G50N/G104D |
| 46 µM | 1/3 | G26P/G100S |
| 120 µM | 3/3 | A33C/S63K/F106T |
| 1.6 µM | 3/3 | D30H/A61R/K65A |
| 67 µM | 1/3 | S63C/V64T/G100N |
| nd | 0/3 | F29R/G56W/G100R |
| 22 nM | 3/3 | G26Y/W53T/K65V |
| 71 µM | 1/3 | G56W/I58P/R101T |
| nd | 0/3 | Y32F/S55Q/S63C |
| nd | 0/3 | F29L/H35T/G104P |
| 16 nM | 3/3 | G26E/F27T/G56E |
| 22 µM | 3/3 | H35R/G59L/A61H |
| nd | 0/3 | A33V/I51R/K65H |
| nd | 0/3 | T28P/D31G/W53M |
| 240 µM | 1/3 | S55R/Y60N/G103N |
| 110 µM | 3/3 | D30W/S52I/S57W |
| nd | 0/3 | N54R/S55L/I58C |
| nd | 0/3 | I51L/W53V/G56Q |
| 28 µM | 2/3 | F29S/S52G/F106W |
| 2.1 µM | 1/3 | D30V/A33L/G100V |
| nd | 0/3 | F29A/Y60Q/F106Y |
| nd | 0/3 | Y32P/G56L/G59C |
| 30 µM | 1/3 | F27R/D30R/K65W |
| 84 µM | 2/3 | I51S/A61P/G102T |
| 24 µM | 2/3 | G50P/D62P/F106Y |
| 170 µM | 3/3 | T28E/A33Q/W53Q |
| nd | 0/3 | S52Y/S63P/G100M |
| nd | 0/3 | G26N/G103N/G104H |
| nd | 0/3 | D30W/N54V/V99N |
| nd | 0/3 | F27Q/G59Q/A61Y |
| nd | 0/3 | H35Y/N54I/I58N |
| 19 µM | 1/3 | H35G/V99K/R101K |
| 260 nM | 1/3 | G56L/S57G/G100K |
| nd | 0/3 | G26E/A33V/D62F |
| 32 µM | 1/3 | N54R/G56F/G104E |
| 20 µM | 1/3 | S52E/N54F/S57D |
| nd | 0/3 | T28K/N54P/R101D |
| 10 µM | 2/3 | S57T/A61I/V64D |
| 76 nM | 3/3 | I58M/G104C/Y108K |
| nd | 0/3 | H35L/G102K/F106Y |
| nd | 0/3 | Y32T/I51A/G103P |
| nd | 0/3 | F27C/I51N/A61M |
| 460 nM | 3/3 | T28K/F29V/Y108R |
| 4.0 µM | 1/3 | Y32K/A33K/A61R |

Empty control strains, which show no peptide, gave a signal in 21% of pairings with library AAYL51; the median was 34 µM and 95% of these signals were weaker than 1.8 µM. No background was subtracted.